Test in data set [1]: not given
This is another data set of the same source.

Read-outs that look alike come from different tables or passages of the source.

Regarding “sulfasalazine benzenesulfonic acid (1:1) salt [Benzenesulfonic Acid Salt]”, the “Thermodynamic solubility, Concentration” value (pH 1) is recorded as “<LOD”; the “Thermodynamic solubility, Concentration” value (pH 4.5) is recorded as “<LOD”; the “Thermodynamic solubility, Concentration” value (pH 6.8) is listed as “<LOD”. The “Thermodynamic solubility, XRPD of remaining solid” value was “Sulfasalazine” (pH 1), “Sulfasalazine” (pH 4.5) and “Sulfasalazine” (pH 6.8).

In the case of “sulfasalazine tromethamine (1:1) salt [Tromethamine Salt]”, the “Post-agitation pH” value by setting is: (pH 1) 1.61; (pH 4.5) 6.98; (pH 6.8) 6.95. Also, the “Pre-agitation pH” value reads like this: (pH 1) 1.36; (pH 4.5) 5.80; (pH 6.8) 6.89. For the same substance, the “Solubility Estimate” value in data set [1] (2-butanol) was less than 1 mg/mL; in data set [1] (DMSO) it was greater than 82 mg/mL; in data set [1] (EtOAc) it was less than 1 mg/mL; in data set [1] (EtOH) it was 5 mg/mL; in data set [1] (MeOH), 27 mg/mL; in data set [1] (THF) it was 2 mg/mL. In addition, the “Solubility Estimate” value in data set [1] (acetone) is 2 mg/mL; in data set [1] (acetonitrile (ACN)), less than 1 mg/mL; in data set [1] (chloroform) it was less than 1 mg/mL; in data set [1] (heptane) it was less than 1 mg/mL; in data set [1] (isopropyl alcohol (IPA)) it was less than 1 mg/mL; in data set [1] (water) it was 13 mg/mL.
